# Results from PubChem BioAssay AID492953 (The Scripps Research Institute Molecular Screening Center, 2010).
# Protein sequences, listed by entry. Tags and fused reporters are not part of them.
# UniProt P68402, whole entry: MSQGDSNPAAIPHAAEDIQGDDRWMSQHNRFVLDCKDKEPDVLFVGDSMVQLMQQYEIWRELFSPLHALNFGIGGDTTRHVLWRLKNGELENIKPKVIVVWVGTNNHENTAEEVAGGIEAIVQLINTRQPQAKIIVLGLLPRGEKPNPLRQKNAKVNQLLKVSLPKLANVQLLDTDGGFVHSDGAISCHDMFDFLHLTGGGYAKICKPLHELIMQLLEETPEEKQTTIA
# This is a selection; strong and weak results do not stand in their true shares. Some results for these compounds are left out of this collection, so the calls shown say nothing about other tests. Activity calls are given as the source filed them.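 Rule for the calls: active = inhibition above the mean of all tested compounds plus 3 SD (cut at about 24% in these data); inactive = the rest.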
# Target: Platelet-activating factor acetylhydrolase IB subunit alpha2 (Homo sapiens) (UniProt P68402)
# Assay: PAFAH1B2 enzyme inhibitors, primary screen, biochemical, fluorescence polarization, human (AID 492953);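 note: 0% = enzyme with DMSO and 100% = wells lacking PAFAH1B2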
# Details: recombinant PAFAH1B2, FP-rhodamine activity probe, at 3.39 µM, stronger effect = higher value
row,SMILES,inhibition
1,O=C(OCCN1CCCC1)C(O)(c1ccccc1)c1ccccc1,inactive: 1.67%
2,CC(C)Oc1ccc(C(=O)NCC2(N(C)C)CCCCC2)cc1,inactive: 0.46%
3,CN(C)c1cccc(C(=O)NCC2(N(C)C)CCCCC2)c1,inactive: 3.77%
4,COc1ccc(Br)c(C(=O)NCC2(N3CCCCC3)CCCCC2)c1,inactive: 7.81%
5,O=C(OC1CN2CCC1CC2)C(CO)(c1ccccc1)c1ccccc1 (stereo not given),inactive: 4.13%
6,O=C(NCC1(N2CCCCC2)CCCCC1)c1cccc(Cl)c1,inactive: 2.21%
7,COc1ccc(Cl)cc1C(=O)NCC1(N(C)C)CCCCC1,inactive: -1.59%
8,COc1cccc(C(=O)NCC2(N3CCCCC3)CCCCC2)c1,inactive: 1.95%
9,COc1cc(C(=O)NCC2(N(C)C)CCCCC2)c([N+](=O)[O-])cc1OC,inactive: 1.19%
10,CN(C)C1(CNC(=O)c2ccc(Br)cc2)CCCCC1,inactive: 2.32%
11,COc1ccc(C(=O)NCC2(N(C)C)CCCCC2)cc1,inactive: 10.2%
12,O=C(NCC1(N2CCCCC2)CCCCC1)c1cccc(Br)c1,inactive: 6.39%
13,CCN1CCCC(OC(=O)C2(O)c3ccccc3C=Cc3ccccc32)C1 (stereo not given),inactive: -6.25%
14,Cc1cc(C(=O)NCC2(N3CCCCC3)CCCCC2)ccc1[N+](=O)[O-],inactive: 6.56%
15,O=C(NCC1(N2CCCCC2)CCCCC1)c1cc(F)c(F)cc1Cl,inactive: 4.85%
16,C=CCN1CCN(CCOC(=O)C(O)(c2ccccc2)c2ccccc2)CC1,inactive: 6.31%
17,CN(C)c1ccc(C(=O)NCC2(N(C)C)CCCCC2)cc1,inactive: -0.12%
18,CN(C)C1CCCC1OC(=O)C(O)(c1ccccc1)c1ccccc1 (stereo not given),inactive: 3.98%
19,Cc1ccccc1C(=O)NCC1(N2CCCCC2)CCCCC1,inactive: 10.2%
20,Cc1ccc(C(=O)NCC2(N3CCCCC3)CCCCC2)cc1,inactive: 7.19%
21,COc1cc(SC)ccc1C(=O)NCC1(N(C)C)CCCCC1,inactive: -1.44%
22,CCN(CC)CC(C)C(C)OC(=O)C(O)(c1ccccc1)c1ccccc1 (stereo not given),inactive: 3.03%
23,CC(C)N1C(=O)CC2(CCN(CCOC(=O)C(O)(c3ccccc3)c3ccccc3)CC2)C1=O,inactive: 1.49%
24,CN1[C@@H]2CC[C@H]1CC(OC(=O)C(O)(c1ccccc1)c1ccccc1)C2 (stereo not given in full),inactive: 5.09%
25,O=C(NCC1(N2CCCCC2)CCCCC1)c1cc([N+](=O)[O-])ccc1Cl,inactive: 2.29%
